# scFv variants of Ab-14 (heavy chain) against a SARS-CoV-2 spike peptide

From the AlphaSeq antibody data of Engelhart et al. 2022 (doi:10.1038/s41597-022-01779-4), copy in the FLAb collection.

All variants were tested on one target, the spike HR2 peptide PDVDLGDISGINAS (SARS-CoV-2).

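Variants in AAYL49 differ from the parent at up to three CDR positions; double and triple changes were sampled at random. AlphaSeq pools MATa yeast showing the antibodies with MATalpha yeast showing the peptide. After mating in shaken culture at 30 °C for 16 h, diploids were selected and their barcode pairs sequenced. Read counts were normalised to the haploid input and turned into Kd by a linear fit to BCL2-family pairs of known affinity, for each replicate. Mating was done three times.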

Parent: Ab-14, a human scFv built as VH, the linker GGGGSGGGGSGGGGS, VL. Only the CDRs of the heavy chain vary.
VH: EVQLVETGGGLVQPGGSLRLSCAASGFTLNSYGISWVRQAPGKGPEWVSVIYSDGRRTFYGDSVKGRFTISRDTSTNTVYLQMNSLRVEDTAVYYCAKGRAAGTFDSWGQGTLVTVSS
VL: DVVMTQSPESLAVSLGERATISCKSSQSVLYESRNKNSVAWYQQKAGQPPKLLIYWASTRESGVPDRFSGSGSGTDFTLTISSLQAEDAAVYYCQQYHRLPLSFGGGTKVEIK

The parent's heavy chain CDRs are GFTLNSYGIS, VIYSDGRRTFYGDSVK, GRAAGTFDS; each variant's own CDRs replace them letter for letter.
Affinities are written as log10 Kd with Kd in nM; a lower number is a better binder.
Where no diploid with the target was found in that replicate, the entry reads "n.d.": below detection, most likely a poor binder, though not proof of it.
Parent in this assay: reference entry 0.65, copy in this library 4.11 (one replicate of three).

{"CDR-H1": "GFTLKSYGIS", "CDR-H2": "VIYSLGRRAFYGDSVK", "CDR-H3": "GRAAGTFDS", "replicates, log10 nM": "4.90 / 4.17 / n.d.", "empty controls": "3 of 9 (4.45)"}
{"CDR-H1": "GFTLNSYGIS", "CDR-H2": "VIYSDGPRTFAGDSQK", "CDR-H3": "GRAAGTFDS", "replicates, log10 nM": "n.d. / n.d. / n.d.", "empty controls": "0 of 9"}
{"CDR-H1": "GFTLNSYGIS", "CDR-H2": "VIYSDGLRTFYGDYVK", "CDR-H3": "GAAAGTFDS", "replicates, log10 nM": "3.29 / 3.25 / 1.08", "empty controls": "1 of 9 (2.61)"}
{"CDR-H1": "GFTLNSYGIS", "CDR-H2": "VIYSDGRRTFYGDSVK", "CDR-H3": "WRAAGPFDS", "replicates, log10 nM": "2.63 / 1.86 / 1.69", "empty controls": "2 of 9 (3.87)"}
{"CDR-H1": "GFTLNSYFLS", "CDR-H2": "VIYSDGRRTFYGDSVK", "CDR-H3": "GRAAGTFDS", "replicates, log10 nM": "4.09 / n.d. / n.d.", "empty controls": "1 of 9 (3.79)"}
{"CDR-H1": "GETLNSYGIS", "CDR-H2": "VIYSDGRRTFYGDSVT", "CDR-H3": "GRAAGTFDS", "replicates, log10 nM": "n.d. / n.d. / n.d.", "empty controls": "1 of 9 (3.17)"}
{"CDR-H1": "GFTLNSYGIS", "CDR-H2": "VIYSDGRRTFYGDSVK", "CDR-H3": "CRAASTFDS", "replicates, log10 nM": "n.d. / n.d. / n.d.", "empty controls": "4 of 9 (4.69)"}
{"CDR-H1": "GFTLNSYGIS", "CDR-H2": "VEYSDGRRTFYGDSVK", "CDR-H3": "GRAAGTFDS", "replicates, log10 nM": "n.d. / 3.13 / 3.65", "empty controls": "4 of 9 (4.32)"}
{"CDR-H1": "GFTLNSYGIS", "CDR-H2": "VPYSDGRRTFYGDSVK", "CDR-H3": "GRADGNFDS", "replicates, log10 nM": "n.d. / 3.44 / n.d.", "empty controls": "0 of 9"}
{"CDR-H1": "GFTLNSYGIS", "CDR-H2": "VCASDGRRTFYNDSVK", "CDR-H3": "GRAAGTFDS", "replicates, log10 nM": "n.d. / n.d. / 4.83", "empty controls": "3 of 9 (3.92)"}
{"CDR-H1": "GFTLNSGGIS", "CDR-H2": "RIYSDGRRTFYEDSVK", "CDR-H3": "GRAAGTFDS", "replicates, log10 nM": "n.d. / n.d. / n.d.", "empty controls": "3 of 9 (3.76)"}
{"CDR-H1": "GFTLNSYGIS", "CDR-H2": "VIYSDGRQTFYGDSYK", "CDR-H3": "GRAATTFDS", "replicates, log10 nM": "n.d. / n.d. / n.d.", "empty controls": "0 of 9"}
{"CDR-H1": "RFTLNSYGIS", "CDR-H2": "VIYSDGRRTFYGDSVK", "CDR-H3": "GRAAGTFDS", "replicates, log10 nM": "1.60 / 1.47 / 1.64", "empty controls": "1 of 9 (3.65)"}
{"CDR-H1": "GFILNSYGIV", "CDR-H2": "VIYSDGRRTFYGDSVK", "CDR-H3": "GRNAGTFDS", "replicates, log10 nM": "n.d. / n.d. / n.d.", "empty controls": "1 of 9 (3.38)"}
{"CDR-H1": "GFTLNSYGIS", "CDR-H2": "VIYSDGRRTFYGDYVK", "CDR-H3": "ERHAGTFDS", "replicates, log10 nM": "n.d. / 3.25 / n.d.", "empty controls": "0 of 9"}
{"CDR-H1": "GFTLNSYGIS", "CDR-H2": "VIYSDGRWTFYGFSVK", "CDR-H3": "GRFAGTFDS", "replicates, log10 nM": "5.20 / n.d. / n.d.", "empty controls": "2 of 9 (3.98)"}
{"CDR-H1": "GFTLNSYGIS", "CDR-H2": "VMYSDGRRTFYGASVK", "CDR-H3": "GRAAGPFDS", "replicates, log10 nM": "n.d. / n.d. / n.d.", "empty controls": "0 of 9"}
{"CDR-H1": "GFTLNSYGIS", "CDR-H2": "VHYSDGRRTFYGDSVS", "CDR-H3": "GRAAGTEDS", "replicates, log10 nM": "n.d. / n.d. / n.d.", "empty controls": "3 of 9 (4.20)"}
{"CDR-H1": "GFTLNSYYIS", "CDR-H2": "VIYSDGRDTFYGDSVK", "CDR-H3": "GSAAGTFDS", "replicates, log10 nM": "n.d. / n.d. / n.d.", "empty controls": "0 of 9"}
{"CDR-H1": "GFTLNSYGIS", "CDR-H2": "VIYSDGRRTSYGDSCK", "CDR-H3": "GRAAGWFDS", "replicates, log10 nM": "2.79 / 2.60 / 3.15", "empty controls": "4 of 9 (4.83)"}
{"CDR-H1": "GFATNSCGIS", "CDR-H2": "VIYSDGRRTFYGDSVK", "CDR-H3": "GRAAGTFDS", "replicates, log10 nM": "1.17 / 1.43 / 1.54", "empty controls": "4 of 9 (3.82)"}
{"CDR-H1": "GFTLNSYGIS", "CDR-H2": "VIYSDGRWTFYGDSVK", "CDR-H3": "GRAAGTFDI", "replicates, log10 nM": "n.d. / n.d. / n.d.", "empty controls": "0 of 9"}
{"CDR-H1": "GFTLNSYFIT", "CDR-H2": "VDYSDGRRTFYGDSVK", "CDR-H3": "GRAAGTFDS", "replicates, log10 nM": "n.d. / 2.97 / n.d.", "empty controls": "1 of 9 (4.06)"}
{"CDR-H1": "CFTLNSYGPS", "CDR-H2": "VIYSDGRRTFYGDSVN", "CDR-H3": "GRAAGTFDS", "replicates, log10 nM": "n.d. / n.d. / n.d.", "empty controls": "1 of 9 (4.10)"}
{"CDR-H1": "GFTLNSYGIS", "CDR-H2": "VAYSDGNRTFYGDSVK", "CDR-H3": "GRAAGTFDT", "replicates, log10 nM": "1.77 / 2.00 / 2.10", "empty controls": "4 of 9 (4.18)"}
{"CDR-H1": "GFTLNSYGIS", "CDR-H2": "VIYSDGRRKFYGDSVK", "CDR-H3": "GRAYGTFDS", "replicates, log10 nM": "5.97 / n.d. / n.d.", "empty controls": "1 of 9 (3.46)"}
{"CDR-H1": "GFTLNSYGIS", "CDR-H2": "SIYSDGRRTFYGDSVK", "CDR-H3": "GRAAGTGDS", "replicates, log10 nM": "n.d. / n.d. / n.d.", "empty controls": "2 of 9 (3.52)"}
{"CDR-H1": "GFTLNSYGIS", "CDR-H2": "VIYSDGRRSNYGDSVK", "CDR-H3": "GRAASTFDS", "replicates, log10 nM": "2.74 / 2.67 / 3.02", "empty controls": "1 of 9 (2.96)"}

Repeated from above, the 3 best binders with a signal in all replicates:

CDR-H1	CDR-H2	CDR-H3	replicates, log10 nM	empty controls
GFATNSCGIS	VIYSDGRRTFYGDSVK	GRAAGTFDS	1.17 / 1.43 / 1.54	4 of 9 (3.82)
RFTLNSYGIS	VIYSDGRRTFYGDSVK	GRAAGTFDS	1.60 / 1.47 / 1.64	1 of 9 (3.65)
GFTLNSYGIS	VAYSDGNRTFYGDSVK	GRAAGTFDT	1.77 / 2.00 / 2.10	4 of 9 (4.18)

As a blank, each scFv also met three strains without target: over library AAYL49, 15% of these pairings were detected, typically at 4.06 and seldom below 2.83. The control count says in how many pairings with the empty strains this scFv gave a signal, with their mean in brackets.